Among the data in US6528619 are molar excess for 50% inhibition of the binding of uPA (fold molar excess) values, retold here.

The test addresses cell surface-associated uPA receptor (uPAR) on PMA-stimulated human U937 cells (human), Q03405. Description: flow cytometry, competition with FITC-pro-uPA on U937 cells. On the technique in general: Flow cytometry measures light scatter and fluorescence of single cells or particles in a stream.

Regarding DCLNGGTAVSNKYFSNIHWCN (peptide, UniProt P00749 32-52, looked up, modifications not checked) [uPA12-32 [C19A], P00749 32-52], the molar excess for 50% inhibition of the binding of uPA (fold molar excess) is 15000.
